In PubChem BioAssay AID625 (Vanderbilt High Throughput Screening Facility, 2007) one finds fluorescence slope data, which are given here for one compound.

Protein sequences, listed by entry. Tags and fused reporters are not part of them.
UniProt P08173, whole entry, looked up: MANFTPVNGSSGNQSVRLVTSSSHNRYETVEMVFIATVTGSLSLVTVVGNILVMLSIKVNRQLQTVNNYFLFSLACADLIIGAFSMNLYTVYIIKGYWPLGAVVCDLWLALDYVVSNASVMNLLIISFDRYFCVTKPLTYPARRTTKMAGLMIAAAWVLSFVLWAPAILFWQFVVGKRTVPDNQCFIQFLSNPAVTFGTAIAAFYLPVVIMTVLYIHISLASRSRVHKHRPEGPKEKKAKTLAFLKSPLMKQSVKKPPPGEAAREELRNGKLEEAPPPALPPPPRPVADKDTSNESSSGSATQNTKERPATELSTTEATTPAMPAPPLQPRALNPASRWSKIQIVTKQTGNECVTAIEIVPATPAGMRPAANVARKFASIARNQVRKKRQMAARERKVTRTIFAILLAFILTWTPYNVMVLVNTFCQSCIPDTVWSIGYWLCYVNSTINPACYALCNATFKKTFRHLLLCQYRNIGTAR

SMILES strings stand for the structures. The list shows a part of the results, in another mix than the full data. Some tests of the compounds listed are not included; inactive here does not mean inactive elsewhere. Active and inactive are the calls of the source.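 How the source made its calls: active means fluorescence slope after compound addition differing from the mean of all tested samples at 99.7% confidence, mostly higher but some lower; inactive means the rest.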

This assay deals with Muscarinic acetylcholine receptor M4 (Homo sapiens) (UniProt P08173). The experiment in a line: M4-linked GIRK flux change, two-sided – cell-based, HEK293 M4/GIRK, thallium flux, BTC-AM, M4 allosteric agonist project, primary screen (AID 625).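 Further: thallium influx through GIRK channels coupled to M4 in HEK293 cells with BTC-AM dye.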 The note with it: at 10 µM, actives lie on both sides.
As to `O=C(OC1CN2CCC1CC2)C(CO)(c1ccccc1)c1ccccc1` (stereo unspecified), the fluorescence slope was inactive: 0.00487.
